Assay results published in US11492340B2 (priority 2017, dated 2022).

Target: eeAChE inhibited with a VX analogue (EMP) (Electrophorus electricus, UniProt O42275)
Test: Reactivation of EMP-inhibited eeAChE by QMPs, Ellman's assay
Settings: pH 8.0, 37° C.; for k, apparent rate constant of first-order or pseudo-first-order AChE reactivation: QMP 4 min [sic]

Structure (SMILES)	k, apparent rate constant of first-order or pseudo-first-order AChE reactivation [h⁻¹]	reactivation activity/kinetics, in words
CCCN(C)Cc1ncccc1O	0.063 ± 0.004	
CCN(CC)Cc1ncccc1O [C7, 2-((diethylamino)methyl)pyridin-3-ol]	0.056 ± 0.003	slower kinetics
CCN(C)Cc1ncccc1O	0.090 ± 0.003	
CCCCN(C)Cc1ncccc1O	0.080 ± 0.003	
Oc1cccnc1CN1CCCC1 [C8, 2-(pyrrolidin-1-ylmethyl)pyridin-3-ol]	0.088 ± 0.003	
